Experiments:
DR1 (HLA-DRB1*01:01) = DR1 (HLA-DRB1*01:01) (Homo sapiens, UniProt P01903+P01911, A100R/D57E/F55L/F60I/F76Y/I96L/L162R/M171V/P40L/Q125E/R42F/V115G/Y59C); test: MAPS peptide–MHCII binding, DR1; conditions: flow cytometry
DR1 = type: binding, human

Substance: DNP-PKYVKQNTLKLAT [HA306–318]
- DNP-positive beads (shift) (DR1 (HLA-DRB1*01:01); […], anti-DNP staining): 37.9%
- DNP staining versus empty DR1 or peptide alone (DR1 (HLA-DRB1*01:01); microspheres): significantly greater DNP staining
- peptide exchange efficiency (DR1): ~100%
